The record followed here is patent US7220775B2, “Compound useful for the treatment of neuropathic pain” (H. Lundbeck A/S, priority 2002, dated 2007).

Amino acid sequences for entries named in this document (tags omitted).
UniProt O60755, whole entry: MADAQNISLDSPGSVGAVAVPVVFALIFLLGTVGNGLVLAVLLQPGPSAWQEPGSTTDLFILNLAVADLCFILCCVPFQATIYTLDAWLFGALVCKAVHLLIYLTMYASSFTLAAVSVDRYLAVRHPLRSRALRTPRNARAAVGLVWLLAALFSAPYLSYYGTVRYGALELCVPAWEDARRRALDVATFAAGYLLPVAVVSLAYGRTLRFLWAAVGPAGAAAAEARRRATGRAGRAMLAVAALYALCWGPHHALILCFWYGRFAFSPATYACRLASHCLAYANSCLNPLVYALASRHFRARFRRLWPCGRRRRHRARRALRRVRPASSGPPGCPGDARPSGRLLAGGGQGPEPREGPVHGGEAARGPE

Molecules are shown by their SMILES.

In experiment [1] the target is human GAL3 receptor (Homo sapiens, UniProt O60755). In words: Radioligand binding at cloned human GAL3 receptor. Particulars: reference.
Experiment [2] concerns NE transporter (rNE Uptk). Put plainly: Binding at native NE transporter. More on the design: species or system rat. Particulars: Table 8.

For `COC[C@@H]1[C@@H](c2ccccc2)OCCN1c1nc(Nc2ccc(C)cc2)cc(N2CCCCC2)n1`, the selectivity ratio hGAL3 (Ki hGAL3 / Ki hGAL3) in experiment [1] (Table 8) and in experiment [1] (Table 10) was 1 in each case. Besides, the selectivity ratio rNE Uptk (Ki rNE Uptk / Ki hGAL3) in experiment [2] is > 100.
